Experimental data published in patent US9611277B2 (Janssen Pharmaceutica NV, priority 2013, dated 2017).

The chains behind the UniProt entries cited, without tags or fusion partners.
UniProt O43614, whole entry: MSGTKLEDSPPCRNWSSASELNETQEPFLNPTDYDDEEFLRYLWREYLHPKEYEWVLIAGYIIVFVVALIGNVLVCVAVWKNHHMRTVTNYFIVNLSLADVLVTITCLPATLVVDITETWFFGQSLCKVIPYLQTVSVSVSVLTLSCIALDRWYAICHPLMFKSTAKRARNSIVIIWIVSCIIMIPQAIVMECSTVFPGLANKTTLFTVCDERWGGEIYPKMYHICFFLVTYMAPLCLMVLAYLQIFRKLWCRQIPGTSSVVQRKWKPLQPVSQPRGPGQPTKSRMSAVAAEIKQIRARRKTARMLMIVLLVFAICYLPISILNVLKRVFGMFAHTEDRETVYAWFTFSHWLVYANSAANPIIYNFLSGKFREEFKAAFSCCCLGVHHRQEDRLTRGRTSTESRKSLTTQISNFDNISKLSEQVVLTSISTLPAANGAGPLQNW

Assays:
human orexin 2 receptor = human orexin 2 receptor (Homo sapiens (Human), UniProt O43614); assay: Human orexin 2 receptor radioligand binding; conditions: read-out: hOX2 Ki
Description: (§1) Data are analyzed using pc-Sandy macro and graphed on Graphpad Prism 5. For analysis, each concentration point is averaged from triplicate values and the averaged values are plotted on Graphpad Prism. The IC50 was determined by applying the following equation (GraphPad Prism 5.0, SanDiego) for one site competition where X=log (concentration) and Y=specific binding. Top denotes the total [^3H]-(1-(5-(2-fluoro-phenyl)-2-methyl-thiazol-4-yl)-1-((S)-2-(5-phenyl-(1,3,4)oxadiazol-2-ylmethyl)-pyrrolidin-1-yl)-methanone) binding, bottom denotes the nonspecific [^3H]-(1-(5-(2-fluoro-phenyl)-2-methyl-thiazol-4-yl)-1-((S)-2-(5-phenyl-(1,3,4)oxadiazol-2-ylmethyl)-pyrrolidin-1-yl)-methanone) binding. Graphpad Prism calculates Ki value from IC50 and the pre-determined Kd values for [^3H]-(1-(5-(2-fluoro-phenyl)-2-methyl-thiazol-4-yl)-1-((S)-2-(5-phenyl-(1,3,4)oxadiazol-2-ylmethyl)-pyrrolidin-1-yl)-methanone) and [3H]-EMPA. The Ki for each compound is then uploaded into 3DX. Each run comprises individual compounds in triplicate. The data in Table 1 and Table 2 represent averages from between 2-20 runs
Human Orexin 2 Receptor Radioligand Binding Studies […]

rat orexin 1 receptor = rat orexin 1 receptor (Rattus norvegicus, UniProt P56718); assay: Rat orexin 1 receptor radioligand binding; conditions: read-out: rOX1 Ki
Description: as §1, with “The data in Table 1 and Table 2 represent averages from between 2-20 runs” left out
(§2) After centrifugation (2K×G, 5 min at 4° C.), the supernatant was aspirated and the pellets frozen and stored at −80° C. […] Total and nonspecific binding was determined in the absence and presence of 10 μM almorexant. […] Plates were dried in 55° C. oven for 60 min, scintillation fluid was added, and the radioactivity was counted on a Topcount (Packard).

human orexin 1 receptor = human orexin 1 receptor (Homo sapiens, UniProt O43613); assay: Human orexin 1 receptor radioligand binding; conditions: read-out: hOX1 Ki
Description: as §1, with “The data in Table 1 and Table 2 represent averages from between 2-20 runs” left out
as §2

## (6-methyl-3-(2H-1,2,3-triazol-2-yl)pyridin-2-yl)((1S,4R,6R)-6-((5-(trifluoromethyl)pyrazin-2-yl)amino)-2-azabicyclo[2.2.2]octan-2-yl)methanone [Example 83]
Human orexin 2 receptor
  Ki: 289 nM
Rat orexin 1 receptor
  Ki: 8 nM
Human orexin 1 receptor
  Ki: 5 nM
